Results published in PubChem BioAssay AID720508 (The Scripps Research Institute Molecular Screening Center, 2013).
The entries are a selection whose mix differs from that of the whole data set. Active and inactive are the calls of the source.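 The calls were made as follows: active = inhibition above the mean of compounds falling within the control limits plus 3 SD of them (cut at about 14% in these data); inactive = the rest.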

Protein sequences, listed by entry. Tags and fused reporters are not part of them.
UniProt P02675, whole entry, looked up: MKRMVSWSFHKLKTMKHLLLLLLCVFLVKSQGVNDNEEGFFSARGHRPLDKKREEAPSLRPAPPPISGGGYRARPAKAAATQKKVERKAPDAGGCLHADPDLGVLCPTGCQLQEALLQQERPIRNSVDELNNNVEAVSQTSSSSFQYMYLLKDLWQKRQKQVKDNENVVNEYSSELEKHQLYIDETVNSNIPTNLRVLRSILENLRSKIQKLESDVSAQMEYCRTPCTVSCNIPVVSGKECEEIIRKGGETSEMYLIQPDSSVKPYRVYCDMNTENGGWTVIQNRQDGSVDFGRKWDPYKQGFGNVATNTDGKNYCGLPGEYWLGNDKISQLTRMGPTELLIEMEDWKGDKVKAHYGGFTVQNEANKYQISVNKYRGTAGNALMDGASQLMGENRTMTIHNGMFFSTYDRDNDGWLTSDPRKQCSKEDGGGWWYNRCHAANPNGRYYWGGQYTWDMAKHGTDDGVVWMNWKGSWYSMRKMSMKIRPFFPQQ

Target: Fibrinogen beta chain (Homo sapiens) (UniProt P02675)
Assay: small molecules displacing Tn7 from DD(E) complex – biochemical, fluorescence polarization, human fibrin, Tn7 probe, primary screen (AID 720508);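 also: 0% = plate median of compound wells and 100% = 10 µM Aha-Tn7 peptide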
Conditions: FP displacement of FITC-Tn7 peptide from fibrin DD(E); at 8.3 µM; stronger effect = higher value; 0% = median of compound wells per plate

| SMILES | inhibition |
| --- | --- |
| CCC(=O)N(c1ccccc1)C1(COC)CCN(CCn2nnn(CC)c2=O)CC1 | inactive: -2.66% |
| CCC(=O)N(c1ccccc1)C1(COC)CCN(CCc2cccs2)CC1 | inactive: -0.06% |
